{
  "source": "paper PMC10502087",
  "about": "“Fatty acid binding proteins are novel modulators of synaptic epoxyeicosatrienoic acid signaling in the brain” (Scientific Reports, 2023)",
  "system": "CA1 pyramidal neuron glutamate synapses",
  "experiment": "Ex vivo whole-cell recordings of evoked EPSCs in hippocampal slices",
  "details": "inhibitor 10 µM with TPPU 10 µM",
  "data": [
    {"compound": "COc1ccccc1[C@H]1[C@H](C(=O)O)[C@H](c2ccccc2OC)[C@H]1C(=O)Oc1ccccc1-c1ccccc1", "note": "(relative stereo)", "values": [
      {"measurement": "Effect on TPPU-induced depression of eEPSCs", "result": "completely abolished"},
      {"measurement": "Effect on TPPU-induced potentiation of eEPSCs", "result": "reduced"}
    ]}
  ]
}
